One compound from paper PMC8019157 (Antiviral research, 2021) can be followed below.

Sequences of proteins named here, by UniProt entry; tags and fusion partners are left off. A change or cut given only in a name is not applied to a line headed by its entry.
UniProt P11716: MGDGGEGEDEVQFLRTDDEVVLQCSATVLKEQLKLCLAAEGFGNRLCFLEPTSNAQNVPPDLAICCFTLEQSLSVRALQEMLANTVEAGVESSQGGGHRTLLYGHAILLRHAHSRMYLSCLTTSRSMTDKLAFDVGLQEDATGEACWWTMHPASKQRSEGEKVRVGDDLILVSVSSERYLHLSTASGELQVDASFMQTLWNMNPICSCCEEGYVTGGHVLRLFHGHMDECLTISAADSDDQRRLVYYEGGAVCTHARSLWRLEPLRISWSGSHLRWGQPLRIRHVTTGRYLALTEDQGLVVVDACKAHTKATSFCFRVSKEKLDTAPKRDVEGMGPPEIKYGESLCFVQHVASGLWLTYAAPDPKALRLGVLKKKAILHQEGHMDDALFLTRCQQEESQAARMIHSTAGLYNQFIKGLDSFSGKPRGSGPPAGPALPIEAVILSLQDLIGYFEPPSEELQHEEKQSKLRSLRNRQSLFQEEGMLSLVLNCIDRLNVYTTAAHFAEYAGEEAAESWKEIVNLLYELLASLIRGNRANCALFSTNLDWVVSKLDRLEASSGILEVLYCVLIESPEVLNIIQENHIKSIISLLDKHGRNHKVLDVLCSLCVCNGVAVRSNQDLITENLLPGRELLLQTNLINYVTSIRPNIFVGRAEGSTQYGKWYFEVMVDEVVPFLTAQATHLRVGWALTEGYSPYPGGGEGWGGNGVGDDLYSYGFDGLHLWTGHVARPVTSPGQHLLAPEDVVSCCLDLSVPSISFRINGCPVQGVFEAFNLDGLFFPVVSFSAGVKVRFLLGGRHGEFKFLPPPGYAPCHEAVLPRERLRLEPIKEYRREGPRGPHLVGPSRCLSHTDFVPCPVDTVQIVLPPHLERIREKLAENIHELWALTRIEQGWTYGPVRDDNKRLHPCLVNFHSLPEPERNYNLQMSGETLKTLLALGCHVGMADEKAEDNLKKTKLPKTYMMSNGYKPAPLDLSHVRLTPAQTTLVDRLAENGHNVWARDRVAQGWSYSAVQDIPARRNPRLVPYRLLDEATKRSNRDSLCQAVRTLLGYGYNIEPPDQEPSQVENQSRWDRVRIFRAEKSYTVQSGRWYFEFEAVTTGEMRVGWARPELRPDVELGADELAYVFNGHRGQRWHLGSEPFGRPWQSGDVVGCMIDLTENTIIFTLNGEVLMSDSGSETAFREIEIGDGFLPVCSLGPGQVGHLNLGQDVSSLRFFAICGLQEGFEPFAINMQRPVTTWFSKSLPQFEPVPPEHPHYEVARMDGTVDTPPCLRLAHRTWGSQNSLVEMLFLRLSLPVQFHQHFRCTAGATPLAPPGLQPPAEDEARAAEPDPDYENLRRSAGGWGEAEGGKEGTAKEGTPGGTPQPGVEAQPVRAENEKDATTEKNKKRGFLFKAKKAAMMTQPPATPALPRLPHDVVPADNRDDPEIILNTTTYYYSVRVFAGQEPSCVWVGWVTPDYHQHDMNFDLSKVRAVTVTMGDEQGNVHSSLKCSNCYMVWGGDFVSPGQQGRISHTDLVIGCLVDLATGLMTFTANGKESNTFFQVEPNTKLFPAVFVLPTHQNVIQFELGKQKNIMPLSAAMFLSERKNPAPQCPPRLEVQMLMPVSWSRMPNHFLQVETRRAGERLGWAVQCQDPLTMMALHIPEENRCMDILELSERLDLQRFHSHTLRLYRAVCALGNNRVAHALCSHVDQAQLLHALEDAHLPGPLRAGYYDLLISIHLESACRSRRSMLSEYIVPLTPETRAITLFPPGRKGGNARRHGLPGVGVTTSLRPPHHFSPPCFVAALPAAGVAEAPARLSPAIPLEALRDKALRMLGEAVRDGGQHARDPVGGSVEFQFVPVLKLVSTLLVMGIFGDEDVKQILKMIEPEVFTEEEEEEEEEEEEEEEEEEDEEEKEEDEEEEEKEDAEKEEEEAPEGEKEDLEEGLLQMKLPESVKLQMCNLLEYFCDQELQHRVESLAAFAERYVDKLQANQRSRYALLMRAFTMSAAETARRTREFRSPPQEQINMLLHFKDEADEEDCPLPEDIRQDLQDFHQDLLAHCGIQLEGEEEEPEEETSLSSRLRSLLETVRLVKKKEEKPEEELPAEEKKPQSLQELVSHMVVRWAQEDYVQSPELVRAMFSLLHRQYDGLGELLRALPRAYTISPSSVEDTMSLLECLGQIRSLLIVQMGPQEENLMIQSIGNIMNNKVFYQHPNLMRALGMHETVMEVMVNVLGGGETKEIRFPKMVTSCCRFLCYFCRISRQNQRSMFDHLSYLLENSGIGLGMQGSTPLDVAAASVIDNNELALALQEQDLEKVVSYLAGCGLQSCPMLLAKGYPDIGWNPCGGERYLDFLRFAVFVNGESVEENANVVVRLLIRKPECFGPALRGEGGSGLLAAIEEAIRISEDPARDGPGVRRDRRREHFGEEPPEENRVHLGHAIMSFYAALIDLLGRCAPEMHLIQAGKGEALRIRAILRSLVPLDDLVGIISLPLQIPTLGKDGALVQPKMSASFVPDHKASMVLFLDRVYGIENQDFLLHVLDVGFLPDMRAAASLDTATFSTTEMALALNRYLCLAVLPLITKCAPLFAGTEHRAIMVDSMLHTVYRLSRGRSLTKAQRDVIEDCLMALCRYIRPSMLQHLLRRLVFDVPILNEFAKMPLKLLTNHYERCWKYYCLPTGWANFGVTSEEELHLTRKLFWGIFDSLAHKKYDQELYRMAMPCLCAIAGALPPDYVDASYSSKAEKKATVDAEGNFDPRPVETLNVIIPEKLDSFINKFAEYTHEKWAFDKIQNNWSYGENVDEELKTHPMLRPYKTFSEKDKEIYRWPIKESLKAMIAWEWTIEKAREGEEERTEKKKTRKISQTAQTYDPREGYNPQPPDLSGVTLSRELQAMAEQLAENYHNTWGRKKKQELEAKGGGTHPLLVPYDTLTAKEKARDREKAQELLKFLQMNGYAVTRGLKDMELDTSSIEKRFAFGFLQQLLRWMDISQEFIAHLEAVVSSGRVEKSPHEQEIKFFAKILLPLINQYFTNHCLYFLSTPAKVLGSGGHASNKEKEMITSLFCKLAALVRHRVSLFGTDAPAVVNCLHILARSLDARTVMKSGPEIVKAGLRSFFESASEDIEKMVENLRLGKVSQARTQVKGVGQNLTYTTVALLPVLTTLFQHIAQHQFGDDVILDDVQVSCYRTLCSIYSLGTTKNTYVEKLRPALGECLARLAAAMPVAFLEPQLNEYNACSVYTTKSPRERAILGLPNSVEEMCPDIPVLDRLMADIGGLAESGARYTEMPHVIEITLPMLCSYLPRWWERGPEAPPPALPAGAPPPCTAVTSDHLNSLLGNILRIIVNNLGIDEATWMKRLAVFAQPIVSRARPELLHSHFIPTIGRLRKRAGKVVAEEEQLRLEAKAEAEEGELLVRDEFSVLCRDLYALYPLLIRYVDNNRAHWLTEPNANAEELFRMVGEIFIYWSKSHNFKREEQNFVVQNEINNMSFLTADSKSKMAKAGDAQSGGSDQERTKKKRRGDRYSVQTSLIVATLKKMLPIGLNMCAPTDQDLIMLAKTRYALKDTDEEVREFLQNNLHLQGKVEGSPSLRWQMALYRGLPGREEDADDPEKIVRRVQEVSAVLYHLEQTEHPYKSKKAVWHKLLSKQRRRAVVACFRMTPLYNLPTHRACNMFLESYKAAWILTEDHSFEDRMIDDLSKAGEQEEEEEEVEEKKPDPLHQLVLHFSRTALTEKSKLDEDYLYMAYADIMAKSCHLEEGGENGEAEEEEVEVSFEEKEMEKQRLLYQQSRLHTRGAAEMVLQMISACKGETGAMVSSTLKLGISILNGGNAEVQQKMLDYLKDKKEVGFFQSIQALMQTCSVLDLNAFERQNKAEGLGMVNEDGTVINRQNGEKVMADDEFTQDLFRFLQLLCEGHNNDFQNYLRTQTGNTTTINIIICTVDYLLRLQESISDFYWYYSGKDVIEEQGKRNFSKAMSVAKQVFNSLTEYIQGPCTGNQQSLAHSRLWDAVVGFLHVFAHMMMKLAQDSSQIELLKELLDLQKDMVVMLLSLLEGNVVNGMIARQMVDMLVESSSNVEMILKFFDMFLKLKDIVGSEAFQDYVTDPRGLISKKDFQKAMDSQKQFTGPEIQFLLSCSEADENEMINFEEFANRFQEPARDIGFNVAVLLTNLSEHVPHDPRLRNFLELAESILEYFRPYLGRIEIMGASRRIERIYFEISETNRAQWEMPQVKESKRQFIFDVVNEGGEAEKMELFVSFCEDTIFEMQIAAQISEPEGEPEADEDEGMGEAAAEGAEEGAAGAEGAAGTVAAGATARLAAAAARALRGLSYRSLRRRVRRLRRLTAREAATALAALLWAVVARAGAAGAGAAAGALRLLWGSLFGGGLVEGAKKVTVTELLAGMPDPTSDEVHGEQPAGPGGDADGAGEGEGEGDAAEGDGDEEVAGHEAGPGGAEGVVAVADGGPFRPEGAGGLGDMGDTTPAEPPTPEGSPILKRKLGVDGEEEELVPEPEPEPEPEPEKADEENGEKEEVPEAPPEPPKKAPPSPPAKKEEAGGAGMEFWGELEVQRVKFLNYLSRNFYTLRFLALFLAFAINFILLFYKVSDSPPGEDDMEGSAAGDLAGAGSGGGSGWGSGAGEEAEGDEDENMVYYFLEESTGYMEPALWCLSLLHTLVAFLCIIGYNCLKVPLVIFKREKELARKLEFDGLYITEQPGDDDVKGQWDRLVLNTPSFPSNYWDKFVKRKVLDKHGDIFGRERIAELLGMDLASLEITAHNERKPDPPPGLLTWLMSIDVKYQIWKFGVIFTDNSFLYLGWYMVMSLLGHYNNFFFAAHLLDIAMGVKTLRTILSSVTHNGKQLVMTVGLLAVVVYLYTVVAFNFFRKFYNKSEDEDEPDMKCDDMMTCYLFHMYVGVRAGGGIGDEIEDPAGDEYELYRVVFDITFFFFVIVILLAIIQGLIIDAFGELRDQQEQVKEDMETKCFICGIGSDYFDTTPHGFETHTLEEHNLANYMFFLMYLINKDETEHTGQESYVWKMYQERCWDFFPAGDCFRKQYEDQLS

Broadly, the IC50 is the concentration that inhibits the measured activity by half. The low end stands for greater potency, the high end for weaker potency. Usually Ki stands for a dissociation constant, usually derived from enzyme kinetics or from competition with a known ligand. The low end stands for higher affinity, the high end for lower affinity.

The target in the assay is rabbit skeletal muscle ryanodine receptor Ca^2+ release channel (RyR1) (Oryctolagus cuniculus, UniProt P11716). As to the kind of experiment: [^3H]ryanodine binding/displacement assay with SR membrane vesicles.

In turn, `CC(C)[C@@]1(O)[C@@H](OC(=O)c2ccc[nH]2)[C@@]2(O)[C@@]3(C)C[C@]4(O)O[C@@]5([C@H](O)[C@@H](C)CC[C@]35O)[C@@]2(O)[C@@]14C` [ryanodine] had an IC50 of 5.3 ± 0.4 nM and an inhibition constant Ki of 1.4 ± 0.2 nM.
